The subject of the series is OCT1, OCT2, OCT3, MATE1 and MATE2K. The note with it: oxaliplatin 20 μM in protein-free HBSS or 100% human serum.

Among the data in patent US11197862B2, “Methods of preventing toxicity of platinum drugs” (XOMICS BIOPHARMA, INC., priority 2015, dated 2021) are transportability by transporters values, retold here.

`O=C(O)C(=O)O.[NH-][C@@H]1CCCC[C@H]1[NH-].[Pt+2]` [Oxaliplatin]: the transportability by transporters result was “confirmed the transportability of oxaliplatin by transporters including OCT1, OCT2. OCT3 and MATE1 and MATE2K”.
